# Values quoted from earlier work, collected in patent US20250195668A1.
# Protein sequences, listed by entry. Tags and fused reporters are not part of them.
# UniProt O75914, whole entry: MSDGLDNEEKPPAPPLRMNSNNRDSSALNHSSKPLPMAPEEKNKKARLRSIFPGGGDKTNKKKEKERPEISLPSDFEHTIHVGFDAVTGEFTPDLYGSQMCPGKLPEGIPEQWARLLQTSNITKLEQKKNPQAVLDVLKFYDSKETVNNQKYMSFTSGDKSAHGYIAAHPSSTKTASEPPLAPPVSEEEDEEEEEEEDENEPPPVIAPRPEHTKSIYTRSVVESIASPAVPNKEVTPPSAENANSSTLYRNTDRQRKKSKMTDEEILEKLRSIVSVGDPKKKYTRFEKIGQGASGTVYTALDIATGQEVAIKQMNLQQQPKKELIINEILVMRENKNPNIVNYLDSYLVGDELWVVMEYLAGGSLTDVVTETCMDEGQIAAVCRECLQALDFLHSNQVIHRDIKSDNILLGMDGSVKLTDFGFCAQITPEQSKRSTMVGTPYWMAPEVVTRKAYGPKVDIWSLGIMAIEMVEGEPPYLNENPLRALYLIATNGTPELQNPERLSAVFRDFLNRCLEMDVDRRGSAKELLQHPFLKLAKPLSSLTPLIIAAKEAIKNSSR
# UniProt O96013, whole entry: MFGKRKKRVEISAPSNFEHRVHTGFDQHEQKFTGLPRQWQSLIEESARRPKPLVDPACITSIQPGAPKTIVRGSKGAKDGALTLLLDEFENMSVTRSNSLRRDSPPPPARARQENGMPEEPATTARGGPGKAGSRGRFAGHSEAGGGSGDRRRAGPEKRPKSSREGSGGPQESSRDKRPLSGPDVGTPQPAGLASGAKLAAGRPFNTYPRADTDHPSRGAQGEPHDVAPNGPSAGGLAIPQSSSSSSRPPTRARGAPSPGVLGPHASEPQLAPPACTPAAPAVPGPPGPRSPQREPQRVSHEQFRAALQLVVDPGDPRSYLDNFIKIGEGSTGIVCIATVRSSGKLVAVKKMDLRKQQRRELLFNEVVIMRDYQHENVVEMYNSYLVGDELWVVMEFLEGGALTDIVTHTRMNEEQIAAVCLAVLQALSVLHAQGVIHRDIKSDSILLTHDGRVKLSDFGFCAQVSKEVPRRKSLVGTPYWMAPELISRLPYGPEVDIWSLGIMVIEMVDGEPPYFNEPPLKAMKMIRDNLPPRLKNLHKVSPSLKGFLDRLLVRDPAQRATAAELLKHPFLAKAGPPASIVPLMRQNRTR
# UniProt Q13153, whole entry: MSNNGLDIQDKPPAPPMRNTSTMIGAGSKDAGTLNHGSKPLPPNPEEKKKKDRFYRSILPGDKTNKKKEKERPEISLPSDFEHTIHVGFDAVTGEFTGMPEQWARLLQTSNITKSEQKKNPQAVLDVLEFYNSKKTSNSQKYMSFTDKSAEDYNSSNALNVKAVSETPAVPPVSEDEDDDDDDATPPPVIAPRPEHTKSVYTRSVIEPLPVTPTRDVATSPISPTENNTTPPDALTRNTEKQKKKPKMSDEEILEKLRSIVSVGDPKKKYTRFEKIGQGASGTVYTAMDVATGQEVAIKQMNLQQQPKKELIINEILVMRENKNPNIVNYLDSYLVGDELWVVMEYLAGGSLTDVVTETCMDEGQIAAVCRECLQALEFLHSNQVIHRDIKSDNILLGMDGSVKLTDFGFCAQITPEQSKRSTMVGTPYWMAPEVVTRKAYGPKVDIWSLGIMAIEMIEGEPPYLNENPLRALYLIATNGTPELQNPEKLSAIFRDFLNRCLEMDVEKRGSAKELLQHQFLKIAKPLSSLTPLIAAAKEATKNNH
# UniProt Q13177, whole entry: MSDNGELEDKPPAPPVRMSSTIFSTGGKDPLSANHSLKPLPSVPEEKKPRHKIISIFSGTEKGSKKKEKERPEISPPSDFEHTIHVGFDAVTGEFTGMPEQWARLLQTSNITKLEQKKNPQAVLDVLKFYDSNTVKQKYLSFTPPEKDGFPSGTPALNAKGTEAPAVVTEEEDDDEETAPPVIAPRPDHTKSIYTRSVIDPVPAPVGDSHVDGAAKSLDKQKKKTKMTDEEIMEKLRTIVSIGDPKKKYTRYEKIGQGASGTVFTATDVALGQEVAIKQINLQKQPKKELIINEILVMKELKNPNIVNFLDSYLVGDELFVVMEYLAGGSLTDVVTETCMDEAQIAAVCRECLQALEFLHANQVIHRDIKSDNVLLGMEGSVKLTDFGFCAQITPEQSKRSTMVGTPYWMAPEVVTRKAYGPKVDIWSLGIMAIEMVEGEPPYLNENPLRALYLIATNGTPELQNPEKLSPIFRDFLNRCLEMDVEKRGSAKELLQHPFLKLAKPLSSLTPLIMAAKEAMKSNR
# UniProt Q9P286, whole entry: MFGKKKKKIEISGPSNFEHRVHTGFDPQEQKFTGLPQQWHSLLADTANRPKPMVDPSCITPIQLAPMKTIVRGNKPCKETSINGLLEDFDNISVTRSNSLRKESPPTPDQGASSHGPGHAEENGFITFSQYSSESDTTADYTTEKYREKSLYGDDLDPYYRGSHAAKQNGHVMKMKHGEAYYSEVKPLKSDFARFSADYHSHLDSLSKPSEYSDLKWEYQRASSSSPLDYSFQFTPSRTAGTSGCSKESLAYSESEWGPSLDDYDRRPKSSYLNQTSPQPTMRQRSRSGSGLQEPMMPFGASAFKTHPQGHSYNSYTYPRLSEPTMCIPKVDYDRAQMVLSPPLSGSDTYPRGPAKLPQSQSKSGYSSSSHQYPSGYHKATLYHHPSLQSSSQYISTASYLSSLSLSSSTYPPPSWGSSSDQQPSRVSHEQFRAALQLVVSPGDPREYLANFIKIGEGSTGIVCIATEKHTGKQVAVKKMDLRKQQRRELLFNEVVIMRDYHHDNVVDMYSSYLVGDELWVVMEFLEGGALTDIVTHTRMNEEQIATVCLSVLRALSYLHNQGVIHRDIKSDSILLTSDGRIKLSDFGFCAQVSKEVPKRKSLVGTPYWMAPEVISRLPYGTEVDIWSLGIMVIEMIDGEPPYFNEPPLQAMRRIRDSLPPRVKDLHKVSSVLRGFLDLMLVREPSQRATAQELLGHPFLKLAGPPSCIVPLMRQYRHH
# UniProt Q12809, whole entry: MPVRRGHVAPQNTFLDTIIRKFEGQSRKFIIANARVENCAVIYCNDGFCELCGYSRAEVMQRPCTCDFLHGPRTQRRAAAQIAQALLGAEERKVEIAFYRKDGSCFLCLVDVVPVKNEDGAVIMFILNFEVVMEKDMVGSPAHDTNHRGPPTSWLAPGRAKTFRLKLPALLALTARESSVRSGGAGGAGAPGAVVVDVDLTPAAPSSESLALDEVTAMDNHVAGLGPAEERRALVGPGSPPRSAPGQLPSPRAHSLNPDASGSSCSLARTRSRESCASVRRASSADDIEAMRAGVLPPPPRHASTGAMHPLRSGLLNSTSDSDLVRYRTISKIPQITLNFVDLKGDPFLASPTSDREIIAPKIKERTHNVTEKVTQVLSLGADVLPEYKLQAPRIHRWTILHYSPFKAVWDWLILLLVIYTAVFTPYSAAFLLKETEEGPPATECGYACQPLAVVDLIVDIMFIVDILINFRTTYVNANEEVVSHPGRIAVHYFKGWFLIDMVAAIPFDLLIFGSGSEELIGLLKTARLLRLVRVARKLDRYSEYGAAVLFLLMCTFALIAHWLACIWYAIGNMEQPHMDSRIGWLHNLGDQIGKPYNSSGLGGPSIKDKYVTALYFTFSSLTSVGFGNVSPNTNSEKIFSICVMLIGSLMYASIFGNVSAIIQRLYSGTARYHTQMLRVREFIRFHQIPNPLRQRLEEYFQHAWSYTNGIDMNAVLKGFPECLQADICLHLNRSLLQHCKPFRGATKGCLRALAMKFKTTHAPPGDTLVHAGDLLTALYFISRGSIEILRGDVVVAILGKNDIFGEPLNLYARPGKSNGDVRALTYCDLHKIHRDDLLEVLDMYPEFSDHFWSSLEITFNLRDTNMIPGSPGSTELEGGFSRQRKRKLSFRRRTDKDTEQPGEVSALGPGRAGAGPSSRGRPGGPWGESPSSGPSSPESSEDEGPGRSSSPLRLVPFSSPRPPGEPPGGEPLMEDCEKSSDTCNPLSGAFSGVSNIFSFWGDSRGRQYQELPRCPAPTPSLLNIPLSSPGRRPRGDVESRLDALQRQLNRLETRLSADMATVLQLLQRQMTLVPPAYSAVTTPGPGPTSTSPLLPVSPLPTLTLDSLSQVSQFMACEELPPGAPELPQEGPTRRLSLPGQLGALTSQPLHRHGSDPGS
# UniProt P31749, whole entry: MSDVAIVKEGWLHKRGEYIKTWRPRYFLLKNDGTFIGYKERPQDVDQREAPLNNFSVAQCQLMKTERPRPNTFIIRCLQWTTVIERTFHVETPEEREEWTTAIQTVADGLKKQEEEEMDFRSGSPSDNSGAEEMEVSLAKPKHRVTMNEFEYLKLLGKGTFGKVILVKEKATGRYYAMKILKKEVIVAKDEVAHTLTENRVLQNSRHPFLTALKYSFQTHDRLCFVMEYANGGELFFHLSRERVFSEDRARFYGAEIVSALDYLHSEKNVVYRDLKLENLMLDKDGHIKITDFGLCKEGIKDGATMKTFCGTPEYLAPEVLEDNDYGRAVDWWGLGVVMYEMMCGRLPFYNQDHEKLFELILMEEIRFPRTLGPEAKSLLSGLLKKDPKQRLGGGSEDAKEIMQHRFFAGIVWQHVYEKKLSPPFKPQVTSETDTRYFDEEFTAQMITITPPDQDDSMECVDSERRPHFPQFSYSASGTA
# UniProt O15530, whole entry: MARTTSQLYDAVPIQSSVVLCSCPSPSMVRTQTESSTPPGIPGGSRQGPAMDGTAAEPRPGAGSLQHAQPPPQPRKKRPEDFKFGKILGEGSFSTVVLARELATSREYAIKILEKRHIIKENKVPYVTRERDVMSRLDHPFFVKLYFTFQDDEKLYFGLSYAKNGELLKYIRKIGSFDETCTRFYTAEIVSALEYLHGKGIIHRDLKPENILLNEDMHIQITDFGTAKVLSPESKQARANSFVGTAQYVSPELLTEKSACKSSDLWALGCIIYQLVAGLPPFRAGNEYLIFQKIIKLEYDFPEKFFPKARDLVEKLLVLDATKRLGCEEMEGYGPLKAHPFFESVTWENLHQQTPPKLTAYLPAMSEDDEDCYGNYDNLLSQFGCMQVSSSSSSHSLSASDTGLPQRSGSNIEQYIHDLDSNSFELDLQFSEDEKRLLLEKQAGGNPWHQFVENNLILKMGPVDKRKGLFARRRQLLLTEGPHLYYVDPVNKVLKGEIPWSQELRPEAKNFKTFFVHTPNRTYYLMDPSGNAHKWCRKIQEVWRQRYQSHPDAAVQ
# What was measured:
# [1] = cited from earlier work
# PAK3 = PAK3 (Homo sapiens, UniProt O75914); details: read-out: PAK3 Kd; cited from earlier work
# PAK4 = PAK4 (Homo sapiens, UniProt O96013); details: read-out: PAK4 Kd; cited from earlier work
# PAK1 [2] = target: T1, PAK1 (Homo sapiens, UniProt Q13153); details: read-out: PAK1 Kd; cited from earlier work
# PAK2 = PAK2 (Homo sapiens, UniProt Q13177); details: read-out: PAK2 Kd; cited from earlier work
# PAK5 = PAK5 (Homo sapiens, UniProt Q9P286); details: read-out: PAK5 Kd; cited from earlier work
# heRG = heRG (Homo sapiens, UniProt Q12809); details: cited from earlier work
# PAK1 [3] = target: T1, PAK1; details: read-out: PAK1 IC50; cited from earlier work
# AKT1 = AKT1 (Homo sapiens, UniProt P31749); details: cited from earlier work
# PDK1 [4] = target: T2, PDK1 (Homo sapiens, UniProt O15530); details: cited from earlier work
# PDK1 [5] = target: T2, PDK1; details: ITC; cited from earlier work
smiles,measurement,setting,value
Cc1ncc(NC(=O)NC2c3ccccc3-c3ccccc32)c(-c2ccccc2)n1,pKa,[1],7.4
same,Kd,PAK3,> 4 µM
same,Kd,PAK4,> 4 µM
same,Kd,PAK1 [2],0.13 µM
same,Kd,PAK2,> 4 µM
same,Kd,PAK5,> 4 µM
same,heRG dof. Binding I50,heRG,0.31 µM
same,IC50,PAK1 [3],0.19 µM
O=C(Nc1ccc(OC(F)(F)F)cc1)c1cnc(N2CC[C@@H](O)C2)c(-c2cncnc2)c1,logP,[1]; second value of clogP/logP,3.5
COc1ccccc1Cn1c(-c2cccnc2N)nc2cc(Br)cnc21,Akt1 ΔTm,AKT1,no shift
O=C(O)/C=C(/CCc1ccc(Cl)c(Cl)c1)c1ccccc1,Kinase activity assay Amax,PDK1 [4],2.4 fold
same,Ki,PDK1 [5],71800 M⁻¹
same,TΔS,PDK1 [5],2.80 kcal/mol
